# Test results as given in PubChem BioAssay AID1012 (Sanford-Burnham Center for Chemical Genomics, 2008).
# The chains behind the UniProt entries cited, without tags or fusion partners.
# UniProt P05186, whole entry: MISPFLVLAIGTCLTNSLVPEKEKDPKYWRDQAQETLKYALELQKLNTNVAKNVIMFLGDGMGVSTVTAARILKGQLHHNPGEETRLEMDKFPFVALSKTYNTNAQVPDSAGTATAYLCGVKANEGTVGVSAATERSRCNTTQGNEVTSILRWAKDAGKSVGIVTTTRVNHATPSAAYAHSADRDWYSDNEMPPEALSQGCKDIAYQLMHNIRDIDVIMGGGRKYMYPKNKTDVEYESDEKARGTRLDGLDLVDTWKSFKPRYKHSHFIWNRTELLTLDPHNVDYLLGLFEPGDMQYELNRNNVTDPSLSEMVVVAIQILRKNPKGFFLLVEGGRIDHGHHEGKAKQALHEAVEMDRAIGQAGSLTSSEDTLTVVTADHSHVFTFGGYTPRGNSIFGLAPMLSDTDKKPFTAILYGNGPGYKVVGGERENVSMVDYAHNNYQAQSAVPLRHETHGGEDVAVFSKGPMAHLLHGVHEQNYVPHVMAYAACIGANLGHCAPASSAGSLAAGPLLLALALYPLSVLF
# The entries are a selection whose mix differs from that of the whole data set. Activity calls are given as the source filed them.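 How the source made its calls: active means tissue-nonspecific alkaline phosphatase inhibition above about 50% at 20 µM in the single-dose screen (limit read from the data); inactive means the rest.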
# Molecular target: Alkaline phosphatase, tissue-nonspecific isozyme (Homo sapiens) (UniProt P05186)
# Test: blockers of alkaline phosphatase TNAP activity – biochemical, luminescent, no phosphate acceptor, uHTS, primary screen (AID 1012);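 further: 0% = DMSO negative control and 100% = EDTA positive control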
# Conditions: purified TNAP, CDP-star luminescence, 30 min; at 20 µM; hits give high values
row,Structure (SMILES),inhibition
1,Cc1ccc(NP(C)(=O)Oc2ccccc2)c(C)c1 (stereo unspecified),inactive: -4.6%
